Assay type in all cases: cell-based
The test system of assay [1] is A375 malignant melanoma. The assay can be described thus: Cell Proliferation Inhibition Assay (14C-thymidine incorporation), A375.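 Further: proliferation measured by radiolabelled thymidine uptake into new DNA, counted in scintillating 96-well plates, compound-treated wells compared with DMSO-only control wells.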 The note with it: Homo sapiens, A-375, A375 cells. An excerpt: (§1) The ability of a test compound to inhibit unregulated cell proliferation may be determined by measuring incorporation of ^14C-labelled thymidine into newly synthesized DNA within cell lines derived from carcinomas originating from several tissues. Accordingly, the effect of a test compound on proliferation of cells with a variety of phenotypes may be determined.
(§2) Carcinoma cell lines used include the HeLa cervical adenocarcinoma from the American Type Culture Collection (ATCC Cat. #CCL2), A375 malignant melanoma (ATCC Cat. #CRL-1619) and HCT-116 colon carcinoma (ATCC Cat. #CCL-247).
(§3) The carcinoma cells are trypsinized and counted. The cells (3600-8000 count) are added to each well of a 96-well CytoStar tissue culture treated scintillating microplate (Amersham #RPNQ0160) in complete medium (100 μL) and the plate is then incubated in complete medium for 24 hrs at 37° C. in an inert atmosphere containing 5% CO2.
(§4) Test compound (1 μL) in 100% DMSO is added to the plate test-wells with DMSO only added to control-wells. The plate is incubated in complete medium for a second 24 hr period at 37° C. in an atmosphere containing 5% CO2. […]
(§5) The plate contents are then discarded, the plate is washed twice with PBS (200 μL) and then PBS (200 μL) is added to each well. The plate is sealed and the degree of methyl ^14C-thymidine incorporation is quantified on a Packard Top Count.

For assay [2], the system named is HCT-116 colon carcinoma. The experiment in a line: Cell Proliferation Inhibition Assay (14C-thymidine incorporation), HCT-116.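 Further: proliferation measured as methyl 14C-thymidine uptake into new DNA, counted in 96-well scintillating microplates, compared with DMSO-only control wells.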 The note with it: Homo sapiens, HCT-116, HCT-116 cells.
Description: as §1, §2, §3, §4, §5

For assay [3], the system named is HeLa cervical adenocarcinoma. The experiment in a line: Cell Proliferation Inhibition Assay (14C-thymidine incorporation), HeLa.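 Further: test compound in DMSO added to cells seeded in scintillating 96-well plates, DMSO-only wells as control, uptake of methyl 14C-thymidine into new DNA counted.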 The note with it: Homo sapiens, HeLa cells.
Description: as §1, §2, §3, §4, §5

As for `OCc1cccc2[nH]c(-c3n[nH]c4ncc(-c5cncc6ccccc56)cc34)nc12` [Cpd 3, [2-(5-isoquinolin-4-yl-1H-pyrazolo[3,4-b]pyridin-3-yl)-1H-benzoimidazol-4-yl]-methanol], in assay [1], half-maximal inhibition (IC50) required 1470 nM. Turning to `COCc1cccc2[nH]c(-c3n[nH]c4ncc(-c5cnc6ccccc6c5)cc34)nc12` [Cpd 34, 3-[3-(4-methoxymethyl-1H-benzoimidazol-2-yl)-1H-pyrazolo[3,4-b]pyridin-5-yl]-quinoline], in assay [2], the half-inhibitory concentration (IC50) worked out at 3.2 nM. On to `CNCc1cncc(-c2cnc3[nH]nc(-c4nc5cc(OC(F)(F)F)ccc5[nH]4)c3c2)c1` [Cpd 96, methyl-{5-[3-(5-trifluoromethoxy-1H-benzoimidazol-2-yl)-1H-pyrazolo[3,4-b]pyridin-5-yl]-pyridin-3-ylmethyl}-amine], for which half-maximal inhibition in assay [3] (IC50) required 93 nM. The compound `COC(=O)c1cccc2[nH]c(-c3n[nH]c4ncc(-c5cncc6ccccc56)cc34)nc12` [Cpd 108, 2-(5-isoquinolin-4-yl-1H-pyrazolo[3,4-b]pyridin-3-yl)-1H-benzoimidazole-4-carboxylic acid methyl ester] displayed an IC50 in assay [2] of 8010 nM.

The term IC50 denotes the midpoint of a concentration-inhibition curve.

The values above are taken from patent US7541367B2, “3-benzoimidazolyl-pyrazolopyridines useful in treating kinase disorders” (Janssen Pharmaceutica, N.V., priority 2005, dated 2009).
